The list shows a part of the results, in another mix than the full data. Calls of active or inactive are those of the source. Rule as the data show it: active = TR-FRET ratio above about 2000; inactive = the rest.
Experiment: detection-format interference in TR-FRET ratio – biochemical, artefact control for PPARgamma SRC-2 agonist project, primary screen (AID 1049)
Settings: TR-FRET artefact counter-screen; at 8 µM; active compounds read high
For `CP(=O)(Oc1ccccc1)OC(c1ccccc1)C(F)(F)F` (stereo not given), the TR-FRET ratio was inactive: 1570.
With `Cc1cccc(C)c1OP(C)(=O)Nc1ccc(SC(F)(F)F)cc1` (stereo not given) the TR-FRET ratio was inactive: 1480.
With `Cc1cc(C)cc(OP(C)(=O)Nc2ccc(SC(F)(F)F)cc2)c1` (stereo not given) the TR-FRET ratio was inactive: 1470.
In the case of `CP(=O)(NC(=O)Nc1ccccc1)Oc1ccccc1` (stereo not given), the TR-FRET ratio is reported as inactive: 1740.
For `CCOC(=O)c1ccc(NP(C)(=O)Oc2ccc(OC)cc2)cc1` (stereo not given), the TR-FRET ratio was inactive: 1370.
For `CCOP(C)(=S)SCC(=O)NC(C)C(=O)O` (stereo not given), the TR-FRET ratio was inactive: 1600.
In the case of `CP(=O)(Nc1ccccn1)Oc1ccc(Cl)cc1` (stereo not given), the TR-FRET ratio is reported as inactive: 1570.
With `CP(=S)(Nn1cnnc1)Oc1ccccc1` (stereo not given) the TR-FRET ratio was inactive: 1300.
In the case of `CP(=O)(Nc1ccccc1Br)Oc1ccccc1` (stereo not given), the TR-FRET ratio is reported as inactive: 1590.
With `COc1ccccc1OP(C)(=O)Nc1ccccc1` (stereo not given) the TR-FRET ratio was inactive: 1630.
With `O=[N+]([O-])c1ccc2c(c1)C=Nc1ccccc1O2` the TR-FRET ratio was inactive: 1640.
With `Cc1cccc(C)c1OP(C)(N)=O` (stereo not given) the TR-FRET ratio was inactive: 1730.
With `CC(C)(C)c1ccc(OP(C)(=O)Nc2ccc(SC(F)(F)F)cc2)cc1` (stereo not given) the TR-FRET ratio was inactive: 1350.
With `Cc1ccc(NP(C)(=O)Oc2ccccc2)c(C)c1` (stereo not given) the TR-FRET ratio was inactive: 1380.
In the case of `COc1ccccc1OP(C)(=O)Nc1ccc(C)cc1` (stereo not given), the TR-FRET ratio is reported as inactive: 1670.
In the case of `CCOC(=O)c1ccc(NP(C)(=O)Oc2ccccc2)cc1` (stereo not given), the TR-FRET ratio is reported as inactive: 1680.
With `Cc1cc(C)cc(OP(C)(N)=O)c1` (stereo not given) the TR-FRET ratio was inactive: 1620.
For `COc1ccc(OP(C)(=O)Nc2cccc(F)c2)cc1` (stereo not given), the TR-FRET ratio was inactive: 1530.
In the case of `COc1ccccc1OP(C)(=O)Nc1cc(Cl)ccc1C` (stereo not given), the TR-FRET ratio is reported as inactive: 1620.
In the case of `CCN(CC)CCCOC(=O)C(O)(c1ccccc1)c1ccccc1`, the TR-FRET ratio is reported as inactive: 1400.
For `CCOC(=O)c1ccc(NP(C)(=O)Oc2cc(C)cc(C)c2)cc1` (stereo not given), the TR-FRET ratio was inactive: 1440.
In the case of `Cc1cc(C)cc(OP(C)(=O)Nc2ccc(C)cc2C)c1` (stereo not given), the TR-FRET ratio is reported as inactive: 1660.
With `Cc1ccc(C)c(NP(C)(=O)Oc2ccccc2)c1` (stereo not given) the TR-FRET ratio was inactive: 1680.
In the case of `Cc1cc(C)cc(OP(C)(=O)Nc2ccccn2)c1` (stereo not given), the TR-FRET ratio is reported as inactive: 1550.
With `CP(=O)(Nc1cccc(Br)c1)Oc1ccccc1` (stereo not given) the TR-FRET ratio was inactive: 1730.
For `CC1=NCCc2c1[nH]c1ccccc21.O=[N+]([O-])c1cc([N+](=O)[O-])c(O)c([N+](=O)[O-])c1`, the TR-FRET ratio was inactive: 1740.
For `CN1CCCCC1COC(=O)C1(O)c2ccccc2CCc2ccccc21` (stereo not given), the TR-FRET ratio was inactive: 1530.
In the case of `COc1ccccc1OP(C)(=O)Nc1c(C)cccc1C` (stereo not given), the TR-FRET ratio is reported as inactive: 1450.
In the case of `CCCOc1ccc(NP(C)(=O)Oc2ccc(Cl)cc2)cc1` (stereo not given), the TR-FRET ratio is reported as inactive: 1410.
With `CP(=O)(Nc1ccc(SC(F)(F)F)cc1)Oc1ccccc1` (stereo not given) the TR-FRET ratio was inactive: 1560.
For `O=[N+]([O-])c1cc([N+](=O)[O-])c(-n2nnc3ccccc32)c([N+](=O)[O-])c1`, the TR-FRET ratio was inactive: 1600.
For `Cc1nc2ccc3ccccc3c2s1.O=[N+]([O-])c1cc([N+](=O)[O-])c(O)c([N+](=O)[O-])c1`, the TR-FRET ratio was inactive: 1280.
In the case of `CCOP(C)(=S)SCC(=O)NC(C)(CC)C(=O)O` (stereo not given), the TR-FRET ratio is reported as inactive: 1620.
In the case of `CP(=O)(Nc1ccc2c(c1)OCCO2)Oc1ccccc1` (stereo not given), the TR-FRET ratio is reported as inactive: 1720.
With `Cc1ccccc1NP(C)(=O)Nc1ccccc1C` the TR-FRET ratio was inactive: 1460.
In the case of `COc1ccc(OP(C)(=O)Nc2cccc(Br)c2)cc1` (stereo not given), the TR-FRET ratio is reported as inactive: 1430.
In the case of `CN(C)CCOC(=O)C(O)(c1ccccc1)C1CCCCC1` (stereo not given), the TR-FRET ratio is reported as inactive: 1530.
In the case of `COc1ccc(NP(C)(=O)Oc2ccccc2OC)cc1` (stereo not given), the TR-FRET ratio is reported as inactive: 1810.
With `O=[N+]([O-])c1cc([N+](=O)[O-])c(NCC2CCS(=O)(=O)C2)c([N+](=O)[O-])c1` (stereo not given) the TR-FRET ratio was inactive: 1500.
For `CCOC(=O)c1ccc(NP(C)(=O)Oc2ccc(F)cc2)cc1` (stereo not given), the TR-FRET ratio was inactive: 1620.
For `COc1ccc(OP(C)(=O)Nc2ccc(SC(F)(F)F)cc2)cc1` (stereo not given), the TR-FRET ratio was inactive: 1580.
In the case of `CCN(CC)CCCOC(=O)C(O)(c1ccccc1)C1CCCCC1` (stereo not given), the TR-FRET ratio is reported as inactive: 1580.
With `CP(=O)(Nc1ccccc1)Oc1ccc(F)cc1` (stereo not given) the TR-FRET ratio was inactive: 1580.
With `CP(=O)(Nc1ccccc1F)Oc1ccccc1` (stereo not given) the TR-FRET ratio was inactive: 1470.
For `CC(C)c1ccc(OP(C)(=O)Nc2ccc(SC(F)(F)F)cc2)cc1` (stereo not given), the TR-FRET ratio was inactive: 1780.
In the case of `O=C(OCCN1CCN(CCOCc2ccccc2)CC1)C(O)(c1ccccc1)c1ccccc1`, the TR-FRET ratio is reported as inactive: 1340.
In the case of `COc1ccc(OP(C)(=O)Nc2ccccn2)cc1` (stereo not given), the TR-FRET ratio is reported as inactive: 1640.
In the case of `CN(C)CCOC(=O)C(O)(c1ccccc1)C1CCCC1` (stereo not given), the TR-FRET ratio is reported as inactive: 1600.
In the case of `Cc1c(NP(C)(=O)Oc2ccc(C(C)C)cc2)c(=O)n(-c2ccccc2)n1C` (stereo not given), the TR-FRET ratio is reported as inactive: 1570.
With `O=[N+]([O-])c1cc([N+](=O)[O-])c(Nc2ccccn2)c([N+](=O)[O-])c1` the TR-FRET ratio was inactive: 1610.
For `COc1ccccc1OP(C)(=O)Nc1ccc(C)cc1C` (stereo not given), the TR-FRET ratio was inactive: 1540.
With `CP(=O)(Nc1ccccn1)Oc1ccccc1` (stereo not given) the TR-FRET ratio was inactive: 1480.
For `CCc1ccc(OP(C)(=O)O)cc1`, the TR-FRET ratio was inactive: 1630.
With `Cc1cc(C)cc(OP(C)(=O)Nc2cccc(C(F)(F)F)c2)c1` (stereo not given) the TR-FRET ratio was inactive: 1640.
With `COc1ccccc1OP(C)(=O)Nc1ccc(C)c(C)c1` (stereo not given) the TR-FRET ratio was inactive: 1480.
With `COc1ccc(OP(C)(=O)Nc2ccccc2Br)cc1` (stereo not given) the TR-FRET ratio was inactive: 1690.
In the case of `Cc1nc2ccc3ccccc3c2o1.O=[N+]([O-])c1cc([N+](=O)[O-])c(O)c([N+](=O)[O-])c1`, the TR-FRET ratio is reported as inactive: 1440.
For `CP(=O)(Nc1ccc(Cl)cc1Cl)Oc1ccccc1` (stereo not given), the TR-FRET ratio was inactive: 1680.
With `CP(=O)(OCCOc1ccccc1)OCCOc1ccccc1` the TR-FRET ratio was inactive: 1760.
For `CCOC(=O)c1ccc(NP(C)(=O)Oc2ccc(Cl)cc2)cc1` (stereo not given), the TR-FRET ratio was inactive: 1390.
With `CP(=O)(OC12CC3CC(CC(C3)C1)C2)OC12CC3CC(CC(C3)C1)C2` the TR-FRET ratio was inactive: 1550.
In the case of `COc1ccc(OP(C)(=O)Nc2ccc(Br)cc2)cc1` (stereo not given), the TR-FRET ratio is reported as inactive: 1590.
For `CCN(CC)CC(O)COC(=O)C(O)(c1ccccc1)C1CCCCC1` (stereo not given), the TR-FRET ratio was inactive: 1410.
For `COc1ccccc1OP(C)(=O)Nc1c(C)n(C)n(-c2ccccc2)c1=O` (stereo not given), the TR-FRET ratio was inactive: 1720.
With `CCc1ccc(OP(C)(=O)Nc2cccnc2)cc1` (stereo not given) the TR-FRET ratio was inactive: 1400.
With `CP(=O)(Oc1ccccc1)N1CCOC1=O` (stereo not given) the TR-FRET ratio was inactive: 1550.
For `COc1ccccc1OP(C)(=O)Nc1ccccc1Br` (stereo not given), the TR-FRET ratio was inactive: 1560.
With `CC(C)(C)c1ccc(OP(C)(=O)O)cc1` the TR-FRET ratio was inactive: 1500.
For `CP(=O)(Nc1ccc(Cl)cc1)Oc1ccc(F)cc1` (stereo not given), the TR-FRET ratio was inactive: 1580.
In the case of `CN(C)C(=O)c1c([N+](=O)[O-])cc([N+](=O)[O-])cc1[N+](=O)[O-]`, the TR-FRET ratio is reported as inactive: 1660.

Reference: PubChem BioAssay AID1049 (The Scripps Research Institute Molecular Screening Center, 2008)
